Measurements: patent US20250018046A1, “COMPOUNDS FOR TARGETING DEGRADATION OF IRAK4 PROTEINS” (BIOGEN MA INC, priority 2021, published 2025)

The chains behind the UniProt entries cited, without tags or fusion partners.
UniProt Q9NWZ3, whole entry: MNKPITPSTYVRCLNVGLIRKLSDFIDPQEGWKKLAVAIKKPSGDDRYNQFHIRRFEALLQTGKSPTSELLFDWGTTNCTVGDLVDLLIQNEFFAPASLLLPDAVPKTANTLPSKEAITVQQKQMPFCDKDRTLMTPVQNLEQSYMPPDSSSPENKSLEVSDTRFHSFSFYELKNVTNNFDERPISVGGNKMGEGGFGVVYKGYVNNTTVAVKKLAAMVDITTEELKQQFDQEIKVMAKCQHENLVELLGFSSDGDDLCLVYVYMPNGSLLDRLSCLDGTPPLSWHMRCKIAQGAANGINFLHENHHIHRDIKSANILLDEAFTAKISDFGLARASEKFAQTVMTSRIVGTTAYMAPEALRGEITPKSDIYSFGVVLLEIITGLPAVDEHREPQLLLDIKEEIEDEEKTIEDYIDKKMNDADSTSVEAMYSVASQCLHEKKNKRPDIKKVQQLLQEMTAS

Molecular target: IRAK4 (Homo sapiens, UniProt Q9NWZ3)
Assay: IRAK4 degradation assay using the HiBiT Method
Settings: 293T cells expressing HiBiT-tagged IRAK4; 6-hour incubation; Nano-Glo HiBiT Lytic Assay luminescence
Procedure: Selected compounds were tested in an IRAK4 degradation assay using the HiBiT Method.
Phenol red-free Dulbecco's modified Eagle medium (DMEM) and fetal bovine serum (FBS) were purchased from Gibco (Grand Island, NY, USA). The Nano-Glo© HiBiT Lytic Assay System was purchased from Promega (Madison, WI, USA). Cell culture flasks and 384-well microplates were acquired from VWR (Radnor, PA, USA). The 293T cell line was engineered by knocking-in a HiBiT fusion tag into the C-terminal of the IRAK4 gene in 293T cells (Synthego, Redwood City, CA, USA).
IRAK4 degradation was measured via the quantification of luminescent signals using the Nano-Glo© HiBiT Lytic Assay kit. Test compounds were added to 384-well plates in duplicate using an 11-point half-log dilution series, with the highest dose set at 10 mM. 293T cells expressing HiBiT-tagged IRAK4 were then added into 384-well plates at a cell density of 10,000 cells per well. The plates were kept at 37° C. with 5% CO2 for 6 hours. Cells that were treated only with DMSO served as the negative control; wells that contained only assay media served as the background control. After the 6-hour incubation, Nano-Glo® HiBiT Lytic Assay reagents were added to the cells. Luminescence was acquired using an EnVision® Multilabel Reader (PerkinElmer, Santa Clara, CA, USA).

Row | Compound | DC50
1 | CC(C)Oc1cc2nc([C@H]3CC[C@H](CN4CCC(c5ccc(NC6CCC(=O)NC6=O)cc5F)CC4)CC3)cn2cc1NC(=O)c1cccc(C(F)(F)F)n1 (relative stereo) | > 1000 nM
2 | CC(C)Oc1cc2nc(C3CCN(CCN4CCC(c5ccc(OC6CCC(=O)NC6=O)cc5)CC4)CC3)cn2cc1NC(=O)c1cccc(C(F)(F)F)n1 (centres unmarked) | 100 to 500 nM
